The entries are a selection whose mix differs from that of the whole data set. Results filed as inconclusive are left out. Activity calls are given as the source filed them. The call rests on the fitted dose curve; in most records, active means well fitted inhibition curve with a large enough effect; inconclusive means small, poorly fitted or top-dose-only effect; inactive means no such curve, though single readings can be large or run the other way.
Molecular target: Lysine-specific demethylase 4A (Homo sapiens) (UniProt O75164)
Assay: qHTS Assay for Inhibitors of JMJD2A-Tudor Domain; further: nearly all actives have a fitted effect of over 50% in size
Conditions: AlphaScreen JMJD2A-Tudor / H3K4me3 peptide binding; series mostly up to 114 µM; activity change, negative = inhibition: at the top concentration
On the % scale 0 is the no-effect control and ±100 the full control effect; potency means the concentration at half of the fitted maximal effect.

The chains behind the UniProt entries cited, without tags or fusion partners.
UniProt O75164, whole entry: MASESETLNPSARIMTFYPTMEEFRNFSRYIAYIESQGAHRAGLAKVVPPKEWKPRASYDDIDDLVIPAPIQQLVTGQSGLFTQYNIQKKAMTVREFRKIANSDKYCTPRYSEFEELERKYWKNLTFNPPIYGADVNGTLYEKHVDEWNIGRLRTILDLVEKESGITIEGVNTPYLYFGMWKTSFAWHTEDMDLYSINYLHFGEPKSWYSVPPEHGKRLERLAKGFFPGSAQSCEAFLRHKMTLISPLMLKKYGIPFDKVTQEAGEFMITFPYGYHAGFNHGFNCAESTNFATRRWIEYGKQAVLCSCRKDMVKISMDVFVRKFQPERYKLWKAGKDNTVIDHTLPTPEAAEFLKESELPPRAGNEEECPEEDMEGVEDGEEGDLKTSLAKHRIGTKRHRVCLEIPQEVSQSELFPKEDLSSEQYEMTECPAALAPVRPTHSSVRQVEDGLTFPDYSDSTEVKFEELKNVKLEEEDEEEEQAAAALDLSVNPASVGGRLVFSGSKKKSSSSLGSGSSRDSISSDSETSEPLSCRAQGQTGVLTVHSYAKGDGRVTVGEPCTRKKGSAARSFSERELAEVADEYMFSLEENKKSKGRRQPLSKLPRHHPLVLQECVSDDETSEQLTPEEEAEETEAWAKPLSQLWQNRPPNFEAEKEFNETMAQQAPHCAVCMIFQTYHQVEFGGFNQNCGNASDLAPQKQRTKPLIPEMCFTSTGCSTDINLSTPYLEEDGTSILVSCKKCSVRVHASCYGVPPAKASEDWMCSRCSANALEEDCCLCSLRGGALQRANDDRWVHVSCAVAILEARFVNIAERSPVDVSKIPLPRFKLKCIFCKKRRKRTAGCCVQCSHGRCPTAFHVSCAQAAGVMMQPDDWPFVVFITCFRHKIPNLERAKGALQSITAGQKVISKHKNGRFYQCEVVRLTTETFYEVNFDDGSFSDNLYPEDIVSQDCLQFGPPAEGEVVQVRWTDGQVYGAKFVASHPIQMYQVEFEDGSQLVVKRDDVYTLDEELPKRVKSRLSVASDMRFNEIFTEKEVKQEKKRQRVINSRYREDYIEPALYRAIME

Row | Structure (SMILES) | activity change, negative = inhibition | Potency
1 | CCC(CO)(C(=O)OC1CN2CCC1CC2)c1ccccc1 (stereo not given) | inactive: -15.6% | 
2 | COc1cccc(C(=O)N(c2cc(C)cc(C)c2)C2CCN(C(=O)OC(C)(C)C)CC2)c1 | inactive: -11.9% | 
3 | COc1cc(OC)cc(C(=O)NCC2(N3CCOCC3)CCCCC2)c1 | inactive: -2.03% | 
4 | COc1cc(C(=O)NCC2(N3CCOCC3)CCCCC2)cc(OC)c1OC | inactive: -10.9% | 
5 | CN1CCC(Nc2ccc(Cl)cc2)CC1 | inactive: -19.3% | 
6 | CN1CCC(Nc2ccc(F)c(Cl)c2)CC1 |  | active: 7.94 µM
7 | CCOc1ncccc1C(=O)NCC1(N2CCOCC2)CCCCC1 | inactive: 8.33% | 
8 | CCCOc1ccc(C(=O)NCC2(N(C)C)CCCCC2)cc1 | inactive: 9.42% | 
9 | O=C(O)C1(Nc2ccccc2)CCN(Cc2ccccc2)CC1 | inactive: -22.1% | 
10 | CC(C)(C)OC(=O)N1CCC(Nc2ccccc2)CC1 | inactive: -29.1% | 
11 | CCN1CCC(Nc2cccc(F)c2)CC1 |  | active: 3.55 µM
12 | Cc1ccccc1NC1(C#N)CCN(Cc2ccccc2)CC1 | inactive: 2.1% | 
13 | CN(C)c1ccc(C(=O)NCC2(N3CCCCC3)CCCCC2)cc1 | inactive: -23.6% | 
14 | Cn1c(=O)[nH]cc(N(CCCl)CCCl)c1=O | inactive: -14.6% | 
15 | O=C(NCC1(N2CCCCC2)CCCCC1)c1ccco1 | inactive: 2.7% | 
16 | CC(C)(C)c1ccc(C(=O)NCC2(N3CCOCC3)CCCCC2)cc1 | inactive: -13.2% | 
17 | Cc1ccccc1C(=O)NCC1(N(C)C)CCCCC1 | inactive: -7.62% | 
18 | COc1cc(OC)cc(C(=O)NCC2(N3CCCCC3)CCCCC2)c1 | inactive: -14.1% | 
19 | CN(C)C1(CNC(=O)c2ccc(C(C)(C)C)cc2)CCCCC1 | inactive: -7.28% | 
20 | CC(=O)N(c1ccccc1)C1CCNCC1 | inactive: -10.3% | 
21 | Cc1ccc(NC2(C#N)CCN(Cc3ccccc3)CC2)cc1 | inactive: -11% | 
22 | Fc1ccccc1NC1CCN(Cc2ccccc2)CC1 |  | active: 79.4 µM
23 | Cc1ccc(C(=O)NCC2(N3CCCCC3)CCCCC2)o1 | inactive: -11.7% | 

Row | Structure (SMILES) | activity change, negative = inhibition | Potency
24 | O=C(NCC1(N2CCOCC2)CCCCC1)c1ccccc1 | inactive: -11.3% | 
25 | Cc1cc(N(CCCl)CCCl)ccc1C=O | inactive: 11.8% | 
26 | CCCN1CCC(Nc2cc(OC)cc(OC)c2)CC1 | inactive: -27.9% | 
27 | c1ccc(CN2CCC(Nc3ccccc3)CC2)cc1 | inactive: -17.4% | 
28 | CN(C)C1(CNC(=O)c2cccc(C#N)c2)CCCCC1 | inactive: -14.6% | 
29 | CC(C)(C)OC(=O)N1CCC(N(C(=O)c2ccccc2)c2ccc(Cl)cc2)CC1 | inactive: -5.59% | 
30 | O=C(NCC1(N2CCOCC2)CCCCC1)c1ccc([N+](=O)[O-])cc1 | inactive: -19.9% | 
31 | O=C(NCC1(N2CCOCC2)CCCCC1)c1ccccc1[N+](=O)[O-] | inactive: -11.3% | 
32 | N#Cc1ccc(C(=O)NCC2(N3CCCCC3)CCCCC2)cc1 | inactive: -0.687% | 
33 | CCOC(=O)C(CC)C1=NC(C)(C)Cc2ccccc21.O=[N+]([O-])c1cc([N+](=O)[O-])c(O)c([N+](=O)[O-])c1 (stereo not given) | inactive: -15.7% | 
34 | N/C(=N\O)c1c(N)no[n+]1[O-] | inactive: 12.4% | 
35 | CCOC(=O)N1CCC(Nc2ccc(C)cc2)CC1 | inactive: -14.5% | 
36 | O=C(O)c1cccc(Nc2c([N+](=O)[O-])cc([N+](=O)[O-])cc2[N+](=O)[O-])c1 | inactive: -2.56% | 
37 | CCc1cc(C(=O)NCC2(N3CCCCC3)CCCCC2)sc1C | inactive: -13.6% | 
38 | O=C(OC1CN2CCC1CC2)C1c2ccccc2C=Cc2ccccc21 (stereo not given) | inactive: -5.63% | 
39 | O=C(NCC1(N2CCOCC2)CCCCC1)c1cc(Br)ccc1Cl | inactive: -1.01% | 
40 | COc1cc(C(=O)NCC2(N3CCOCC3)CCCCC2)cc(OC)c1C | inactive: -28.4% | 
41 | COc1ccc(C(=O)NCC2(N3CCOCC3)CCCCC2)cc1OC | inactive: -3.62% | 
42 | CN1CCC(Nc2cccc(F)c2)CC1 |  | active: 22.4 µM
43 | O=C(NCC1(N2CCCCC2)CCCCC1)c1cncc(Br)c1 | inactive: -4.86% | 
44 | O=C(OC1CN2CCC1CC2)c1ccc([N+](=O)[O-])cc1 (stereo not given) | inactive: -9.79% | 
45 | O=C(NCC1(N2CCOCC2)CCCCC1)c1ccccc1Br | inactive: -16.9% | 
46 | CCCOc1ccc(C(=O)NCC2(N(C)C)CCCCC2)cc1OC | inactive: -4.93% | 

Row | Structure (SMILES) | activity change, negative = inhibition | Potency
47 | CCCCOc1ccccc1C(=O)NCC1(N2CCOCC2)CCCCC1 | inactive: -1.66% | 
48 | CN(C)c1cccc(C(=O)NCC2(N3CCCCC3)CCCCC2)c1 | inactive: -26.8% | 
49 | O=[N+]([O-])c1cc([N+](=O)[O-])c(OC2CCCCC2O)c([N+](=O)[O-])c1 (stereo not given) | inactive: -3.5% | 
50 | O=C(NCC1(N2CCOCC2)CCCCC1)c1cc(F)c(F)cc1Cl | inactive: -2.58% | 
51 | COc1cc(OC)c(C(=O)NCC2(N(C)C)CCCCC2)cc1OC | inactive: 3.99% | 
52 | O=C(NCC1(N2CCCCC2)CCCCC1)c1cccc(C(F)(F)F)c1 | inactive: -13.8% | 
53 | CCCOc1cccc(C(=O)NCC2(N3CCOCC3)CCCCC2)c1 | inactive: -10.6% | 
54 | O=[N+]([O-])c1cc([N+](=O)[O-])c(NCC2CCS(=O)(=O)C2)c([N+](=O)[O-])c1 (stereo not given) | inactive: 3.69% | 
55 | CC(C)c1ccc(C(=O)NCC2(N3CCOCC3)CCCCC2)cc1 | inactive: -16.9% | 
56 | COc1ccc(NC2CCN(C(=O)OC(C)(C)C)CC2)cc1 | inactive: -24.7% | 
57 | CN1CCN(CCOC(=O)C(O)(c2ccccc2)c2ccccc2)CC1 | inactive: -22.4% | 
58 | O=C(NCC1(N2CCOCC2)CCCCC1)c1cc(=O)[nH]c2ccccc12 | inactive: 0% | 
59 | COc1cc(C(=O)NCC2(N3CCCCC3)CCCCC2)ccc1OC(F)F | inactive: 9.25% | 
60 | O=C(NCC1(N2CCCCC2)CCCCC1)c1ccc(OC(F)F)cc1 | inactive: -11.6% | 
61 | CCOc1ccc(C(=O)NCC2(N3CCOCC3)CCCCC2)cc1 | inactive: -11.6% | 
62 | O=C(NCC1(N2CCCCC2)CCCCC1)c1cccc([N+](=O)[O-])c1 | inactive: -5.82% | 
63 | CSc1ccc(C(=O)NCC2(N3CCOCC3)CCCCC2)cc1 | inactive: -19.9% | 
64 | N#CC1(Nc2ccccc2)CCN(CCc2ccccc2)CC1 | inactive: 11.9% | 
65 | CCN1CCC(Nc2ccc(Cl)cc2)CC1 | inactive: 1.99% | 
66 | CCOC(=O)N1CCC(Nc2cccc(C)c2)CC1 | inactive: -3.32% | 
67 | COc1cc(C(=O)NCC2(N(C)C)CCCCC2)ccc1OC(F)F | inactive: -2.82% | 
68 | CCOc1ccc(C)cc1CN(CCCl)CCCl |  | active: 70.8 µM
69 | O=C1CCN(Cc2ccccc2)CC1 | inactive: -25.9% | 

Row | Structure (SMILES) | activity change, negative = inhibition | Potency
70 | O=C(NCC1(N2CCOCC2)CCCCC1)c1ccc(Cl)cc1 | inactive: -14.2% | 
71 | CCOC(=O)N1CCC(Nc2ccc(F)cc2)CC1 | inactive: -18.6% | 
72 | CCCCOc1ccc(C(=O)NCC2(N3CCOCC3)CCCCC2)cc1 | inactive: -11.6% | 
73 | O=P1(N(CCCl)CCCl)SCCCS1 | inactive: -9.79% | 
74 | O=C(NCC1(N2CCCCC2)CCCCC1)c1ccc(F)cc1 | inactive: -6.76% | 
75 | COc1ccccc1C(=O)NCC1(N2CCOCC2)CCCCC1 | inactive: -18.2% | 
76 | O=C(NCC1(N2CCOCC2)CCCCC1)c1cc2ccccc2o1 | inactive: 3.38% | 
77 | Cc1cc(C)cc(N(C(=O)c2ccccc2)C2CCN(C(=O)OC(C)(C)C)CC2)c1 | inactive: -26.5% | 
78 | O=C(NCC1(N2CCCCC2)CCCCC1)c1ccc(Cl)nc1 | inactive: -7.87% | 
79 | CCOC(=O)N1CCC(Nc2ccc(OC)cc2)CC1 | inactive: -34.6% | 
80 | COc1ccc(Cl)cc1C(=O)NCC1(N2CCOCC2)CCCCC1 | inactive: -4.96% | 
81 | O=C(NCC1(N2CCCCC2)CCCCC1)c1ccc(Cl)s1 | inactive: -12.8% | 
82 | N#CC1(Nc2ccccc2)CCN(Cc2ccccc2)CC1 | inactive: -7.03% | 
83 | O=C(OC1CN2CCC1CC2)C1c2ccccc2Oc2ccccc21 (stereo not given) | inactive: -28.5% | 
84 | O=C(NCC1(N2CCCCC2)CCCCC1)c1cccs1 | inactive: -11.7% | 
85 | O=C(NCC1(N2CCCCC2)CCCCC1)c1ccc(=O)[nH]c1 | inactive: -7.69% | 
86 | CC(C)(C)OC(=O)N1CCC(N(C(=O)c2ccccc2)c2ccc(F)cc2)CC1 | inactive: -11.4% | 
87 | COc1ccc(C(=O)NCC2(N3CCCCC3)CCCCC2)c(OC)c1OC | inactive: -9.93% | 
88 | COc1ccc(C(=O)NCC2(N3CCCCC3)CCCCC2)cc1 | inactive: -14.9% | 
89 | Cc1cccc(NC2(C#N)CCN(Cc3ccccc3)CC2)c1 | inactive: 0.685% | 
90 | CSc1ccccc1C(=O)NCC1(N2CCCCC2)CCCCC1 | inactive: -19.3% | 

Source: PubChem BioAssay AID504339 (National Center for Advancing Translational Sciences (NCATS), 2011)
